Results on 1 compound are retold here after patent US11077128B2, “Selective inhibitors of Alpha2-containing isoforms of Na,K-ATPase and use thereof for reduction of intraocular pressure” (Yeda Research and Development Co. Ltd., priority 2015, dated 2021).

Experiment [1] deals with IOP in rabbits. Kind of experiment: Lowering of 4AP-raised IOP in rabbits, topical. It counts as in vivo, New Zealand white rabbits. The note with it: 10 μM.
Experiment [2] relates to IOP in rabbits. Kind of experiment: Lowering of basal IOP in rabbits, topical. The experiment is classed as in vivo, New Zealand white rabbits. Conditions: one drop of 1 mM solution, other eye PBS.

Turning to `CC(C)CN1CCC(OC2C(O)CC(OC3C(O)CC(OC4CCC5(C)C(CCC6C5CC(O)C5(C)C(C7=CC(=O)OC7)CCC65O)C4)OC3C)OC2C)OC(C)C1` (centres unmarked), the “effect on 4AP-induced IOP” value with IOP in rabbits [1] was “still effective”. Moreover, the “effect on lowering the basal IOP” value in the experiment on IOP in rabbits [2] was “neither digoxin nor DiB had a significant effect”.
